Measurements taken from patent US20090047269A1, “METABOLOMIC CANCER TARGETS” (The Regents of the University of Michigan, priority 2007, published 2009).

Tested on: immortalized benign RWPE prostate cells
Test: Modified Boyden chamber matrigel invasion assay, RWPE cells
Format: cell-based
Conditions: pre-treatment of RWPE cells with 10 μM

C#Cc1cccc(Nc2ncnc3cc(OCCOC)c(OCCOC)cc23)c1 [reference compound]
decrease in sarcosine-induced invasion: 2 fold
